Test results as given in PubChem BioAssay AID1046 (PCMD, 2008).
The entries are a selection whose mix differs from that of the whole data set. Active and inactive are the calls of the source.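 The calls were made as follows: active = inhibition at or above 40%; inactive = inhibition below 40%.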

Target: Prothrombin (Homo sapiens) (UniProt P00734)
Test: blockers of thrombin peptide substrate cleavage – biochemical, 1536-well, fluorogenic AMC substrate, counter-screen for coagulation protease inhibitor project, primary screen (AID 1046);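 also: 0% = enzyme with no compound and 100% = wells without enzyme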
Conditions: alpha-thrombin, Boc-VPR-AMC fluorogenic substrate cleavage; at 5 µM; hits give high values

**Q.** Which inhibition does the source give for `O=[N+]([O-])c1ccc(OP2(=O)COCCO2)cc1` (stereo unspecified) here?
**A.** The inhibition was inactive: -1.23%.
